The chains behind the UniProt entries cited, without tags or fusion partners. Residues count along the entry.
UniProt P25779, 123-467: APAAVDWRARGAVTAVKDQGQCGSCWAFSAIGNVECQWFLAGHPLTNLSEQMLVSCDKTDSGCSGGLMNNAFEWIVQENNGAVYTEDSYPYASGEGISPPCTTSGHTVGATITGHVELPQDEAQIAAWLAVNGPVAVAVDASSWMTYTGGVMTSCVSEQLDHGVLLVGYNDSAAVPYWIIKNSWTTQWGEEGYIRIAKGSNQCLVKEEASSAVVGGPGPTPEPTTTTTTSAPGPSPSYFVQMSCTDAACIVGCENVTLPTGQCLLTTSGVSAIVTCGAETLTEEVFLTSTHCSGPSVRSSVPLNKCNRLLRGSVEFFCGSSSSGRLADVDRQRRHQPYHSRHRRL

According to US7495023B2, “Thio semicarbazone and semicarbozone inhibitors of cysteine proteases and methods of their use” (The Regents of the University of California, priority 2002, dated 2009):

Target: T. cruzi cathepsin L-like protease (cruzain) (Trypanosoma cruzi, UniProt P25779)
Test: biochemical
Settings: 5 min incubation, room temperature, pH 5.50; read-out: IC50 against cruzain
Experimental: IC50 Determinations. Inhibitors were screened for effectiveness against the T. cruzi cathepsin L-like protease (cruzain) using purified recombinant protein. Cruzain (1 nM) was incubated with 20-50000 nM inhibitor in 100 mM sodium acetate-5 mM DTT buffer (pH 5.50, buffer A) for 5 min at room temperature. […] The increase in fluorescence (excitation at 355 nm and emission at 460 nm) was followed with an automated microtiter plate spectrofluorimeter (Molecular Devices, spectraMAX Gemini). Inhibitor stock solutions were prepared at 20 mM in DMSO, and serial dilutions were made in DMSO (0.7% DMSO in assay). Controls were performed using enzyme alone and enzyme with DMSO. IC50 values were determined graphically using inhibitor concentrations in the linear portion of a plot of inhibition versus log [I] (seven concentrations were tested, and at least two were in the linear range).

## CCC(=NNC(N)=S)c1cccc(Br)c1 [Compound 1i, 3′-Bromopropiophenone Thio Semicarbazone]
  IC50: 100 nM
